# Values of other authors as cited in patent US9457016B2, “Methods for treating polycystic kidney disease” (New York University, priority 2013, dated 2016).
# What was measured:
# [1] = system: P493 human lymphoma B cells; conditions: cited from earlier work
# [2] = system: P493 human lymphoma B cells; conditions: in vivo; cited from earlier work
compound,measurement,setting,value
"Nc1nnc(CCSCCc2nnc(NC(=O)Cc3ccccc3)s2)s1 [compound 6, N-(5-{2-[2-(5-amino-[1,3,4]thiadiazol-2-yl)-ethylsulfanyl]-ethyl}-[1,3,4]thiadiazol-2-yl)-2-phenyl-acetamide]",growth of P493 human lymphoma B cells in vitro,[1],attenuated the growth
same,growth of P493 cells in a mouse xenograft model,[2],attenuated the growth
